Source: patent US9120785B2, “Pyridyl aminopyridines as Syk inhibitors” (Merck Sharp & Dohme Corp., priority 2011, dated 2015)

Molecular target: recombinant human GST-Syk (Homo sapiens (Human), UniProt P43405)
Test: Homogeneous Time-Resolved Fluorescence (HTRF) assay for the recombinant human Syk enzyme
Assay type: biochemical
Conditions: recombinant human GST-Syk 5 pM, ATP 25 μM
Description: Homogeneous Time-Resolved Fluorescence (HTRF) Assay for the Recombinant Human Syk Enzyme:
A recombinant GST-hSyk fusion protein was used to measure potency of compounds to inhibit human Syk activity. The recombinant human GST-Syk ([…] #08-176) (5 pM final concentration) was incubated with various concentrations of the inhibitor diluted in DMSO (0.1% final concentration) for 10 minutes at room temperature in 15 mM Tris-HCl (pH 7.5), 0.01% tween 20, 2 mM DTT in 384 well plate format. To initiate the reaction the biotinylated substrate peptide (250 nM final concentration) that contains the phosphorylation site for Syk was added with magnesium (5 mM final concentration) and ATP (25 μM final concentration). Final volume of the reaction was 10 μL. Phosphorylation of the peptide was allowed to proceed for 45 minutes at room temperature. To quench the reaction and detect the phosphorylated product, 2 nM of a Europium-anti-phosphotyrosine antibody (Perkin Elmer #AD0161) and 70 nM SA-APC (Perkin-Elmer #CR130-100) were added together in 15 mM Tris pH 7.5, 40 mM EDTA, 0.01% tween 20. Final volume of the quenching solution was 10 μL. The resulting HTRF signal was measured after 30 minutes on an EnVision (Perkin-Elmer) reader using a time-resolved fluorescence protocol. IC50 was determined following 10-dose titration (10 μM to 0.508 nM) and four parameter logistic curve fitting using the Merck Assay Data Analyzer. The rhSyk activity (IC50) is expressed as +++(100 nM or less), ++(between 100 and 1000 nM), +(between 1 and 10 μM). IC50 values are also provided for the following representative compounds: […]

[1] = class symbols, read-out: rhSyk activity (IC50)
[2] = 10-dose titration, read-out: rhSyk (nM) IC50

Compound | IC50 [1] | IC50 [2]
CCC(O)(c1ncc(-c2cc(C)cc(Nc3cc(C(F)(F)F)ccn3)n2)s1)[C@H]1CC[C@H](C(=O)O)CC1 (relative stereo) [Example 14-16, trans-4-{1-hydroxy-1-[5-(4-methyl-6-{[4-(trifluoromethyl)pyridin-2-yl]amino}pyridin-2-yl)-1,3-thiazol-2-yl]propyl}cyclohexanecarboxylic acid] | ≤ 100 nM | 
Cc1cc(Nc2cc(C(F)(F)F)ccn2)nc(-c2cnc(C(C)(O)[C@H]3CC[C@H](C(=O)O)CC3)s2)c1 (single isomer, unassigned) [Example 3, trans-4-{(1R or 1S)-1-Hydroxy-1-[5-(4-methyl-6-{[4-(trifluoromethyl)pyridin-2-yl]amino}pyridin-2-yl)-1,3-thiazol-2-yl]ethyl}cyclohexanecarboxylic acid] | ≤ 100 nM | 
Cc1cc(Nc2cc(C(F)(F)F)ccn2)nc(-c2cnc(C(C)(O)[C@H]3CC[C@H](C(=O)O)CC3)s2)c1 (single isomer, unassigned) [Example 4, trans-4-{(1R or 1S)-1-Hydroxy-1-[5-(4-methyl-6-{[4-(trifluoromethyl)pyridin-2-yl]amino}pyridin-2-yl)-1,3-thiazol-2-yl]ethyl}cyclohexanecarboxylic acid] |  | 0.5 nM
Cc1cc(Nc2cc(C)c(F)cn2)nc(-c2cnc(C(C)(O)[C@H]3CC[C@H](C(=O)O)CC3)s2)c1 (single isomer, unassigned) [Example 10, trans-4-[(1R or 1S)-1-(5-{6-[(5-fluoro-4-methylpyridine-2-yl)amino]-4-methylpyridine-2-yl}-1,3-thiazol-2-yl)-1-hydroxyethyl]cyclohexanecarboxylic acid] | ≤ 100 nM | 0.1 nM
Cc1cc(Nc2cc(C)c(F)cn2)nc(-c2cnc(C(C)(O)[C@H]3CC[C@H](C(=O)O)CC3)s2)c1 (single isomer, unassigned) [Example 11, trans-4-[(1R or 1S)-1-(5-{6-[(5-fluoro-4-methylpyridine-2-yl)amino]-4-methylpyridine-2-yl}-1,3-thiazol-2-yl)-1-hydroxyethyl]cyclohexanecarboxylic acid] | ≤ 100 nM | 0.5 nM
Cc1cc(Nc2cc(C)c(F)cn2)nc(-c2cnc(C(C)(O)[C@H]3CC[C@H](C(=O)O)CC3)s2)c1 (single isomer, unassigned) [Example 14-9, trans-4-[1-(5-{6-[(5-fluoro-4-methylpyridin-2-yl)amino]-4-methylpyridin-2-yl}-1,3-thiazol-2-yl)-1-hydroxyethyl]cyclohexanecarboxylic acid] | ≤ 100 nM | 
CCC(O)(c1ncc(-c2cc(C)cc(Nc3cc(C(F)(F)F)ccn3)n2)s1)[C@H]1CC[C@H](C(=O)O)CC1 (single isomer, unassigned) [Example 14-15, trans-4-{1-hydroxy-1-[5-(4-methyl-6-{[4-(trifluoromethyl)pyridin-2-yl]amino}pyridin-2-yl)-1,3-thiazol-2-yl]propyl}cyclohexanecarboxylic acid] | ≤ 100 nM | 0.5 nM
Cc1cc(Nc2cc(C(F)(F)F)ccn2)nc(-c2cnc(C(C)(O)C3CCC(C(=O)O)C3)s2)c1 (stereo not drawn) [Example 14-11, 3-{1-hydroxy-1-[5-(4-methyl-6-{[4-(trifluoromethyl)pyridin-2-yl]amino}pyridin-2-yl)-1,3-thiazol-2-yl]ethyl}cyclopentanecarboxylic acid] | ≤ 100 nM | 
Cc1cc(Nc2cc(C(F)(F)F)ccn2)nc(-c2cnc(C(C)(O)C3CCC(C(=O)O)C3)s2)c1 (stereo not drawn) [Example 14-14, 3-{1-hydroxy-1-[5-(4-methyl-6-{[4-(trifluoromethyl)pyridin-2-yl]amino}pyridin-2-yl)-1,3-thiazol-2-yl]ethyl}cyclopentanecarboxylic acid] |  | 0.5 nM

Where two headings read alike, the source gives them in different places.
